This note sets out measurements from patent publication US7335676B2, “Methods for treating inflammatory conditions or inhibiting JNK” (Signal Pharmaceuticals, LLC, priority 1999, dated 2008).

Chains of the proteins cited; added tags and fusions are not shown.
UniProt P53779, whole entry, species assumed: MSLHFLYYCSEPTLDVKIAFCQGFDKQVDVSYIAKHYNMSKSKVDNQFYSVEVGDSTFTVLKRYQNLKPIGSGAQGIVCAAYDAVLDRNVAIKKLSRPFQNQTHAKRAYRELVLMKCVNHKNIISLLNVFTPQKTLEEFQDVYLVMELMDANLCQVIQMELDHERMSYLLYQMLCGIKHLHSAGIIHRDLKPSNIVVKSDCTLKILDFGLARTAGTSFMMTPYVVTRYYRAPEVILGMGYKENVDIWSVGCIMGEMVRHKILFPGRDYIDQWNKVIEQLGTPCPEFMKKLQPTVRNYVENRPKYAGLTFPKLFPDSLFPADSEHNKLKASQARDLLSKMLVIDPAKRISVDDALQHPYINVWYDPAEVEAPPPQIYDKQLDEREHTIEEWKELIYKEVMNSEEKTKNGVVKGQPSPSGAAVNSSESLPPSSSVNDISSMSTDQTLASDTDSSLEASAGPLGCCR

The target of this test is JNK3 (Homo sapiens, UniProt P53779). The experiment in a line: JNK Assay (c-Jun phosphorylation), JNK3. It counts as biochemical. As to conditions: c-Jun phosphorylation reduced to 50% of control; 11 μM ATP. The protocol:
To 10 μL of the test compound in 20% DMSO/80% dilution buffer consisting of 20 mM HEPES (pH 7.6), 0.1 mM EDTA, 2.5 mM magnesium chloride, 0.004% Triton×100, 2 μg/mL leupeptin, 20 mM β-glycerolphosphate, 0.1 mM sodium vanadate, and 2 mM DTT in water is added 30 μL of 50-200 ng His6-JNK1, JNK2 or JNK3 in the same dilution buffer. The mixture is preincubated for 30 minutes at room temperature. Sixty microliter of 10 μg GST-c-Jun(1·79) in assay buffer consisting of 20 mM HEPES (pH 7.6), 50 mM sodium chloride, 0.1 mM EDTA, 24 mM magnesium chloride, 1 mM DTT, 25 mM PNPP, 0.05% Triton×100, 11 μM ATP, and 0.5 μCi γ-32P ATP in water is added and the reaction is allowed to proceed for 1 hour at room temperature. The c-Jun phosphorylation is terminated by addition of 150 μL of 12.5% trichloroacetic acid. After 30 minutes, the precipitate is harvested onto a filter plate, diluted with 50 μL of the scintillation fluid and quantified by a counter. The IC50 values are calculated as the concentration of the test compound at which the c-Jun phosphorylation is reduced to 50% of the control value.

By IC50 is commonly meant the concentration needed to halve the response being measured. Read a high IC50 as a need for much substance. In turn, `O=C1c2ccccc2-c2n[nH]c3cccc1c23` [Compound 1, Anthra[1,9cd]pyrazol-6(2H)-one] gave an IC50 of 0.15 µM. That is a sub-micromolar value.
